Only a part is listed here, and it is no random draw. Calls of active or inactive are those of the source.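 The calls were made as follows: active = viability at or under a set limit, the compound median less 4 SD (cut at about 6% in these data); inactive = the rest.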
Assay: primary screen for suppressors of beta-catenin knockout HCT116 cell growth, colon tumor, human (AID 818);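 also: 0% = Hyamine 1622 control at 20 µM and 100% = untreated cell control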
Settings: CellTiter-Glo, 60 h, at 10 µM, hits give low values

SMILES	viability
Oc1ccccc1CNc1ccccn1	inactive: 100%
O=C(NC(Sc1ccncn1)C(Cl)(Cl)Cl)c1ccccc1 (stereo not drawn)	inactive: 97.2%
Cc1c2non([O-])c-2c(C)[n+](=O)[n+]1[O-]	inactive: 79.3%
CC(C)CC(=O)NC(Sc1ccc(Cl)cc1)C(Cl)(Cl)Cl (stereo not drawn)	inactive: 86.4%
CN1CCCC(OC(=O)C(c2ccccc2)c2ccccc2)C1 (stereo not drawn)	inactive: 85.5%
CCN(N=Nc1nonc1N)c1nonc1N	inactive: 97%
Cc1cc(SC(NC(=O)c2ccc(F)cc2)C(Cl)(Cl)Cl)ncn1 (stereo not drawn)	inactive: 90.4%
CCOP(=O)(Nc1ccccc1)OCC	inactive: 98.3%
CC1CCN(C(=O)Oc2c(Cl)cc(Cl)c3cccnc23)CC1	inactive: 68.7%
CN(C)C(=O)OCCc1n(C)cc[n+]1C	inactive: 84.8%
CCc1nc2c(n1)c1c(non1O)c1c2no[n+]1[O-]	active: 1.48%
CC(=O)N1C2C3N(C(C)=O)C1C1N(C(C)=O)C(C(N1C(C)=O)N3C(C)=O)N2C(C)=O	inactive: 104%
O=[N+]([O-])c1cccc2n[nH]nc12	inactive: 99.8%
O=P(Nc1nccs1)(c1ccccc1)c1ccccc1	inactive: 103%
CC(C)C(=O)NC(Sc1ccccc1)C(Cl)(Cl)Cl (stereo not drawn)	inactive: 94%
c1nnnn1CCn1cnnn1	inactive: 100%
CC(=O)NC(SC(=S)N(C)C)C(Cl)(Cl)Cl (stereo not drawn)	active: 4.17%
O=C(OC1CN2CCC1CC2)c1cccc(Cl)c1 (stereo not drawn)	inactive: 82.6%
C(Cc1nn[nH]n1)Cc1nn[nH]n1	inactive: 96.9%
CCC(=O)N1C2C3N(C(=O)CC)C1C1N(C(=O)CC)C(C(N1C(=O)CC)N3C(=O)CC)N2C(=O)CC	inactive: 105%
COC(=O)c1cc2c(s1)N=C(c1ccccc1)N(C)P2(=O)N1CCOCC1 (stereo not drawn)	inactive: 111%
CC(=O)NC(SC(=S)N(CC(C)C)CC(C)C)C(Cl)(Cl)Cl (stereo not drawn)	inactive: 17%
CCOC(=O)NC(Sc1ccccc1)C(Cl)(Cl)Cl (stereo not drawn)	inactive: 95.3%
O=P1(Nc2nc3ccc(Cl)cc3s2)COc2ccccc2O1 (stereo not drawn)	inactive: 93.3%

SMILES	viability
Cc1ccc(NCCc2c([N+](=O)[O-])cc([N+](=O)[O-])cc2[N+](=O)[O-])cc1	inactive: 61.9%
COc1cc(C2NCCC3(OCCO3)C2(C)C)cc(OC)c1OC (stereo not drawn)	inactive: 101%
CCOP(=O)(Nc1cccc2ccccc12)OCC	inactive: 88.3%
Cc1cccc(OCC(=O)OC2CN3CCC2CC3)c1 (stereo not drawn)	inactive: 91.1%
CCOP1(=S)c2c(C)nn(CCC#N)c2N=C(c2ccc(F)cc2)N1C (stereo not drawn)	inactive: 72.6%
O=[N+]([O-])c1ccc2c(c1)nnn2O	inactive: 103%
CCOP1(=S)c2c(C)nn(CCC#N)c2N=C(c2ccccc2F)N1C (stereo not drawn)	inactive: 84.3%
O=P(Nc1nccs1)(c1ccccc1)c1nc2ccccc2s1 (stereo not drawn)	inactive: 89.6%
O=P1(Nc2ncccn2)COc2ccccc2OC1	inactive: 98.5%
Cc1ccc(OCC(=O)OC2CN3CCC2CC3)cc1 (stereo not drawn)	inactive: 80.5%
O=P1(Nc2ccc(Br)cn2)COc2ccccc2OC1	inactive: 101%
Cc1nn(-c2ccccc2)c2c1P(=O)(N1CCOCC1)N(C)C(c1ccccc1)=N2 (stereo not drawn)	inactive: 105%
O=P1(Nc2ccccn2)COc2ccccc2OC1	inactive: 97.8%
Clc1n[nH]nc1-c1nn[nH][15n]1	inactive: 93.7%
CCC(C)N(CC(C)C)C(=S)SC(NC(C)=O)C(Cl)(Cl)Cl (stereo not drawn)	inactive: 21.4%
COP1(=S)c2c(C)nn(CCC#N)c2N=C(c2ccc(F)cc2)N1C (stereo not drawn)	inactive: 99%
O=C(COc1ccccc1)OC1CN2CCC1CC2 (stereo not drawn)	inactive: 92.9%
Cc1cc(SC(NC(=O)c2ccccc2)C(Cl)(Cl)Cl)nc(C(C)C)n1 (stereo not drawn)	inactive: 101%
ClCCSc1nnc(-c2cccnc2)o1	inactive: 103%
CCN(CC)C(=S)SC(NC=O)C(Cl)(Cl)Cl (stereo not drawn)	active: 3.35%
O=[N+]([O-])c1cc([N+](=O)[O-])c(-c2ccn[nH]2)s1	active: 3.4%
Cc1ccc2nc3c(c(C)c2c1)CC(C(Cl)Cl)S3 (stereo not drawn)	inactive: 77.6%
Cc1c2c(nc3ccccc13)SC(C(Cl)Cl)C2 (stereo not drawn)	inactive: 96%
O=C(OC1CN2CCC1CC2)C12CC3CC(CC(C3)C1)C2 (stereo not drawn)	inactive: 88.7%

From PubChem BioAssay AID818 (SRMLSC, 2007)
